Read-outs that look alike come from different tables or passages of the source.
Biological target: recombinant eIF4E (Homo sapiens (Human), UniProt P06730)
Assay: Fluorescence polarization competition assay for eIF4E binding potency
Procedure: Compounds were screened for eIF4E binding potency using a fluorescence polarization competition assay. All binding reactions were performed in fluorescence polarization buffer (FPB) containing 20 mM Tris pH 7.5, 100 mM NaCl, 1 mM DTT, and 0.02% Tween-20. Final binding reactions contained 75 nM recombinant eIF4E (Beryllium, custom order), 20 nM EDA-m^7GDP-ATTO-550 (Jena Bioscience, NU-827-550) and varying concentrations of the inhibitory compound of interest. Final DMSO concentration in each reaction was 1%.
eIF4E protein was pre-incubated with EDA-m^7GDP-ATTO-550 in FPB at 2× concentrations for 5 minutes prior to the addition of compounds. Compounds (100×) were prepared using 3-fold serial dilutions in 100% DMSO, and subsequently diluted 1:50 in FPB to produce 2× stocks. 50 μl of 2× eIF4E/EDA-m^7GDP-ATTO-550 were transferred to the wells of a 96-well half-area black flat bottom polystyrene plate. 50 μl of 2× test compound were added, and binding reactions were allowed to equilibrate for 30 minutes at room temperature while protected from light. The fluorescent polarization signal was detected using a Victor 2 multi-label counter (Perkin Elmer) and the concentration necessary to achieve inhibition of eIF4E/EDA-m^7GDP-ATTO-550 binding by 50% (IC50) was calculated using data from an 8-point compound dilution series.
In Table 4A, IC50 values of less than 0.05 μM are labelled as “+++”, from 1 to 0.05 μM are labelled as “++”, and greater than 1 μM are labelled as “+”. ND=not determined.

Chains of the proteins cited; added tags and fusions are not shown.
UniProt P06730, whole entry: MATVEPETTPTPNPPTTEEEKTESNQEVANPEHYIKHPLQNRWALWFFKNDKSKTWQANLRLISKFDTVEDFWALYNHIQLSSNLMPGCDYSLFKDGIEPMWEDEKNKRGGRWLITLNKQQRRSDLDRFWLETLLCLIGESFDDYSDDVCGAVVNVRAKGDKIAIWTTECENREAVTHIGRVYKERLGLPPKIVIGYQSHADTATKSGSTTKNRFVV

[1] = inhibition of eIF4E/EDA-m7GDP-ATTO-550 binding by 50%, Table 4B calculated values
[2] = read-out: elF4E FP, fluorescence polarization competition, 75 nM recombinant eIF4E, 20 nM EDA-m7GDP-ATTO-550, IC50 class
[3] = inhibition of eIF4E/EDA-m7GDP-ATTO-550 binding, calculated IC50 values, Table 4B

Structure (SMILES)	IC50 [1] [nM]	IC50 [2] [nM]	IC50 [3] [nM]
Cc1nc2ccc(C(F)F)c(C#N)c2c(=O)n1CCOc1ccc(Cl)cc1-c1ccnc(C(=O)O)c1	7.89	< 50	
Cc1nc2cnc(N3CCC4(CC3)CN(CC(C)(F)F)C4)c(C#N)c2c(=O)n1CC#Cc1ccc(Cl)cc1-c1ccnc2c(C(=O)NS(C)(=O)=O)csc12			18
Cc1nc2cnc(N3CCC([C@@H]4C[C@H]4C(F)(F)F)CC3)c(C#N)c2c(=O)n1CC#Cc1ccc(Cl)cc1-c1ccnc2c(C(=O)O)csc12 (relative stereo)			11.2
Cc1nc2cc(C(F)(F)F)cc(C#N)c2c(=O)n1CCOc1ccc(Cl)cc1-c1cccc2c(C(=O)O)coc12	47.4	< 50	
Cc1cc2c(=O)n(CCOc3ccc(Cl)cc3-c3cc(C)nc4c(C(=O)O)csc34)c(C)nc2c(C)n1	36.7	< 50	
Cc1cc2cnc(N3CCN(CC(C)(F)CF)CC3)c(C#N)c2c(=O)n1CC#Cc1ccc(Cl)cc1-c1ccnc2c(C(=O)O)csc12 (stereo not drawn)			17
Cc1cc2cnc(N3CCN(CC4(C)CC4)CC3)c(C#N)c2c(=O)n1CC#Cc1ccc(Cl)cc1-c1ccnc2c(C(=O)O)csc12			21.7
Cc1cc2cnc(N3CCN(C4CC4(C)C)CC3)c(C#N)c2c(=O)n1CC#Cc1ccc(Cl)cc1-c1ccnc2c(C(=O)O)csc12 (stereo not drawn)			31.6
Cc1cc2cnc(N3CCN(C4(CCF)CC4)CC3)c(C#N)c2c(=O)n1CC#Cc1ccc(Cl)cc1-c1ccnc2c(C(=O)O)csc12			14
Cc1nc2cnc(N3CC4(C3)CN(C(C)(C)CF)C4)c(C#N)c2c(=O)n1CCCc1ccc(Cl)cc1-c1ccnc2c(C(=O)O)csc12	12.4	< 50	
COCc1cc(-c2cc(Cl)ccc2OCCn2c(C)nc3cc(C(F)(F)F)c(N4CCN(C)CC4)c(C#N)c3c2=O)c2sc(C)c(C(=O)O)c2c1		< 50	13
Cc1cc(-c2c(C(F)(F)F)cc3nc(C)n(CCOc4ccc(F)cc4-c4cc(C)nc5c(C(=O)O)csc45)c(=O)c3c2C#N)cc(C)n1	1.36	< 50	
Cc1nc2cnc(N(C)[C@@H]3C[C@H]4CC[C@@H](C3)N4CC(F)F)c(C#N)c2c(=O)n1CC#Cc1ccc(Cl)cc1-c1ccnc2c(C(=O)O)csc12 (relative stereo)			14.6
Cc1cc(-c2c(C(F)(F)F)cc3nc(C)n(CCOc4cc(F)c(F)cc4-c4cc(C)nc5c(C(=O)O)csc45)c(=O)c3c2C#N)cc(C)n1	39.7	< 50	
Cc1cc2cnc(N3CCN(C(CF)CF)CC3)c(C#N)c2c(=O)n1CC#Cc1ccc(Cl)cc1-c1ccnc2c(C(=O)O)csc12			26
Cc1cc2cnc(N3CCN(CC(C)(C)F)CC3)c(C#N)c2c(=O)n1CC#Cc1ccc(Cl)cc1-c1ccnc2c(C(=O)O)csc12			14.6
Cc1cc2cc(OC(F)F)c(F)c(C#N)c2c(=O)n1CCOc1ccc(Cl)cc1-c1ccnc2c(C(=O)O)csc12	48.8	< 50	
Cc1cc2cnc(N3CCN(C(C)CF)CC3)c(C#N)c2c(=O)n1CC#Cc1ccc(Cl)cc1-c1ccnc2c(C(=O)O)csc12 (stereo not drawn)			31.6
Cc1cc(-c2cc(Cl)ccc2OCCn2c(C)nc3cc(CN(C)C)c(OC(F)F)c(C#N)c3c2=O)c2scc(C(=O)O)c2n1	19.6	< 50	
Cc1cc2cnc(N3CCN(C4(CF)CC4)CC3)c(C#N)c2c(=O)n1CC#Cc1ccc(Cl)cc1-c1ccnc2c(C(=O)O)csc12			32
CN(C)Cc1c(C(F)(F)F)cc2ncn(CC#Cc3ccc(Cl)cc3-c3ccnc4c(C(=O)O)csc34)c(=O)c2c1C#N	73	50 to 1000	
Cc1cc2cnc(N3CCN(C(C)(C)CF)CC3)c(C#N)c2c(=O)n1CC#Cc1ccc(Cl)cc1-c1ccnc2c(C(=O)O)csc12			39.1
C=C(CF)CN1CCN(c2ncc3cc(C)n(CC#Cc4ccc(Cl)cc4-c4ccnc5c(C(=O)O)csc45)c(=O)c3c2C#N)CC1			13.4
Cc1cc2cnc(N3CCN(C(C)(C)CCF)CC3)c(C#N)c2c(=O)n1CC#Cc1ccc(Cl)cc1-c1ccnc2c(C(=O)O)csc12			6.15
Cc1cc2cnc(N3CCN(C(C)(C)C(F)F)CC3)c(C#N)c2c(=O)n1CC#Cc1ccc(Cl)cc1-c1ccnc2c(C(=O)O)csc12			21.1
Cc1cc2cnc(N3CCN(CCC(F)F)CC3)c(C#N)c2c(=O)n1CC#Cc1ccc(Cl)cc1-c1ccnc2c(C(=O)O)csc12			18.4
Cc1cc2cnc(N3CCN(C4(C)CC4)CC3)c(C#N)c2c(=O)n1CC#Cc1ccc(Cl)cc1-c1ccnc2c(C(=O)O)csc12			25.2

More lines, now with the values ahead:

IC50 [1] [nM]	IC50 [2] [nM]	IC50 [3] [nM]	Structure (SMILES)
18.8	< 50		Cc1cc(-c2cc(Cl)ccc2OCCn2c(C)nc3cc(C(F)(F)F)c(OCc4ccccn4)nc3c2=O)c2scc(C(=O)O)c2n1
		3.96	CCS(=O)(=O)NC(=O)c1csc2c(-c3cc(Cl)ccc3C#CCn3c(C)nc4cnc(N(C)C5CCN(CC(C)(F)F)CC5)c(C#N)c4c3=O)ccnc12
		11.7	Cc1nc2cnc(N3CCC(C4(CF)CC(F)(F)C4)CC3)c(C#N)c2c(=O)n1CCOc1ccc(Cl)cc1-c1ccnc2c(C(=O)O)csc12
33.3	< 50		Cc1cc(-c2cc(Cl)ccc2OCCn2c(C)nc3c(C)nccc3c2=O)c2scc(C(=O)O)c2n1
10.6	< 50		Cc1cc(-c2cc(Cl)ccc2OCCn2c(C)nc3cc(C(F)(F)F)c(-c4cnccn4)nc3c2=O)c2scc(C(=O)O)c2n1
67.4	50 to 1000		CSc1cc(C(F)(F)F)cc2nc(C)n(CCOc3ccc(Cl)cc3-c3ccnc4c(C(=O)O)csc34)c(=O)c12
45.1	< 50		Cc1cc(-c2cc(Cl)ccc2OCCn2c(C)nc3cc(C(F)(F)F)c(N4CCC4)nc3c2=O)c2scc(C(=O)O)c2n1
		15.1	Cc1nc2cnc(N3CC4(CCC4C4CC4)C3)c(C#N)c2c(=O)n1CCOc1ccc(Cl)cc1-c1ccnc2c(C(=O)O)csc12 (stereo not drawn)
		15.1	Cc1nc2cnc(N(c3cncs3)C3CCN(CC(F)F)CC3)c(C#N)c2c(=O)n1CC#Cc1ccc(Cl)cc1-c1ccnc2c(C(=O)O)csc12
14.7	< 50		Cc1nc2cc(C(F)(F)F)c(N3CCN(C4CC4)CC3)c(C#N)c2c(=O)n1CCOc1ccc(Cl)cc1-c1ccnc2c(C(=O)O)csc12 [compound 1291]
		9.07	Cc1nc(N2CC3(CNC3)C2)c(C#N)c2c(=O)n(CCOc3ccc(Cl)cc3-c3ccnc4c(C(=O)O)csc34)c(C)nc12
49.9	< 50		Cc1nc2ccc(N(C)C3CCN(CC(C)(F)F)CC3)cc2c(=O)n1CCOc1ccc(Cl)cc1-c1ccnc2c(C(=O)O)csc12
13.2	< 50		Cc1nc2cnc(/C=C/C3(N(C)CC(F)F)CC3)c(C#N)c2c(=O)n1CCOc1ccc(Cl)cc1-c1ccnc2c(C(=O)O)csc12
10.7	< 50		Cc1nc2cnc(N(C)C3CCN(CC(F)(F)C(C)C)CC3)c(C#N)c2c(=O)n1CC#Cc1ccc(Cl)cc1-c1ccnc2c(C(=O)O)csc12
30.7	< 50		Cc1nc(N2CCN(CCF)CC2)c(C#N)c2c(=O)n(CCOc3ccc(Cl)cc3-c3ccnc4c(C(=O)O)csc34)c(C)nc12 [compound 1624]
		16.7	Cc1nc2cnc(N(C)C3CCN(C)CC3)c(C#N)c2c(=O)n1CC#Cc1ccc(Cl)cc1-c1ccnc2c(C(=O)O)csc12 [compound 1495]
